Test results as given in patent US11452775B2, “Detection of arginine methylation of EGFR for prediction of resistance to therapy” (Board of Regents, The University of Texas System, priority 2013, dated 2022).

Test system: EGFR
Experiment: Flow cytometry of APC-conjugated EGF binding to EGFR in SW48 cells, with or without cetuximab
Format: cell-based
Settings: SW48 cells expressing PRMT1

## cetuximab
  cetuximab response (reduction of EGF binding): 50%
